In ChEMBL document CHEMBL5375969, “A Novel Bifunctional μOR Agonist and σ1R Antagonist with Potent Analgesic Responses and Reduced Adverse Effects” (2023):

Legend:
[1] = Toxicity in sc dosed ICR mouse assessed as autonomous activity at 1.5X analgesic ED50 measured after 20 mins; conditions: in vivo
[2] = Toxicity in sc dosed ICR mouse assessed as rewarding effect by measuring increase in time difference after CPP conditioning at 1.5X analgesic ED50 dose measured for 30 mins by CPP test; conditions: in vivo, 0.5 h
[3] = test system: Mus musculus; assay: Analgesic activity in sc dosed ICR mouse assessed as increase in latency time for licking and shaking the hind paw measured for 180 mins by hot plate assay; conditions: 3 h
[4] = Toxicity in sc dosed ICR mouse assessed as respiratory depression at 1.5X analgesic ED50 dose measured after 40 mins by whole body plethysmography; conditions: in vivo
[5] = test system: Mus musculus; assay: Analgesic activity against sc dosed CFA-induced chronic pain ICR mouse model assessed as increase in mechanical paw withdrawal threshold measured for 180 mins; conditions: 3 h
[6] = test system: Mus musculus; assay: Analgesic activity in sc dosed 1% glacial acetic acid-induced visceral pain ICR mouse model assessed as decrease in writhing response administered 20 mins prior to acetic acid injection and measured after 5 to 20 mins; conditions: time 25-40 min

## CCN1CC2(CCN(CCc3cc(F)ccc3F)CC2)O[C@H](C)C1=O
[1]
  Activity: Non-Toxic
[2]
  Activity: Non-Toxic
[3]
  ED50: 3.1 µmol/kg
[4]
  Activity: Non-Toxic
[5]
  ED50: 3.6 µmol/kg
[6]
  ED50: 1.3 µmol/kg
